Rango complex inh – inhibitors of Rango-importin beta complex formation; Potency, µM (doses to about 92.2 µM); Q14974; 340,000 compounds, 0.031% hits; Rango CFP/YFP FRET sensor + importin beta, 45 min; further: nearly all actives have a fitted effect of over 15% in size
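FRET biosensor (snurportin 1 IBB flanked by EYFP and cerulean), 50 nM, with compound 5 min, then 0.125 microM importin beta in PBS, 1 mM DTT, 0.02% Tween-20, 0.1% BSA. CFP/YFP ratio read after 45 min at room temperature; pre-read flags interference.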
Rango release inh – inhibitors of RanGTP-induced Rango-importin beta complex dissociation; Biochemical FRET Rango-importin beta, RanGTP-induced dissociation; Potency, µM (doses to about 46.1 µM); 340,000 compounds, 0.071% hits; AID 540253; further: nearly all actives have a fitted effect of over 45% in size
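Quantitative HTS using a FRET biosensor: 0.1 uM Rango, 0.25 uM importin beta, 0.6 uM Ran, 2 mM GTP, 0.2 uM RCC1 final, PBS with DTT, Tween-20 and BSA. Post-read taken 45 min after Ran addition.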
MmCpn inh – blocks the Methanococcus maripaludis chaperonin Mm-Cpn; Potency, µM (highest dose often 76.9 µM), usual class: inhibitors; purified Mm-Cpn ATPase, ADP Transcreener TR-FRET; 330,000 compounds, 0.031% hits; AID 504842; active means well fitted inhibition curve with a large enough effect; inconclusive means small, poorly fitted or top-dose-only effect; further: nearly all actives have a fitted effect of over 80% in size
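Eu-cryptate anti-ADP/ADP-d2 competition gives a ratio inversely related to ADP. Enzyme at 25 nM was pre-exposed to compound for 10 min, then given 10 uM ATP for 30 min, 37°C throughout.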
KCNH2 WT inh – KCNH2 (human, wildtype) channel inhibition. activity change, % at 1.84 µM. Q12809. 340,000 compounds, 0.37% hits. U2OS, BacMam KCNH2, thallium flux FluxOr; stronger effect = lower value;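 active means maximum activity change below -70%; inconclusive means maximum activity change between -70% and -50%; inactive means maximum activity change above -50%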
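U2OS cells transduced with wild-type KCNH2 virus are loaded with FluxOr dye for 45 min, and thallium flux is measured in kinetic reads before and after stimulation buffer. Rate constants are normalized to DMSO controls.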
CCT chaperon mod – changes cytosolic chaperonin activity; purified chaperonin ATPase assay, HTRF ADP detection, 30 min; 360,000 compounds, 0.3% hits; activity change, % (no concentration beside the values), hits read low; in the data active means activity change below about -30%
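First, chaperonin was dispensed at 40 nM or 20 nM final depending on batch activity. Next, compounds were pinned at 76 uM and ATP added at 10 uM. After 30 min at 37 °C, ADP detection reagents ran 30 min at ambient temperature.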
KCNH2 3.1 block – KCNH2 3.1 (human) potassium channel inhibition | U2OS KCNH2 3.1, thallium flux FluxOr; stronger effect = lower value | activity change, % (tested at about 1.8 µM) | 340,000 compounds, 0.95% hits;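 active means maximum activity change below -70%; inconclusive means maximum activity change from -70% to -50%; inactive means maximum activity change above -50%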;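 further: thallium influx rate constant from kinetic fluorescence after stimulation buffer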
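Channel expression came from 3.1 mutant virus (1.77 x 10^8 /mL) applied to suspended U2OS cells for 4 h. Flux was tracked with FluxOr dye plus Red40 quencher, and kinetic rate constants normalized to controls.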
Each line names hits and unclear results; the compound was inactive in the other large screens. In the library only some 1.4% were active in any assay of this set; here they are far more common. Unless noted, the call rests on the fitted dose curve.

CCn1nnnc1-c1ccc(OC)c(S(=O)(=O)Nc2ccc(S(N)(=O)=O)cc2)c1	none
Cc1nn(CC(C)C)c(Cl)c1C(=O)NCC(C)(C)N1CCOCC1	CCT chaperon mod -34 (no result: Rango complex inh, Rango release inh, MmCpn inh)
Cc1nn(CC(C)C)c(Cl)c1C(=O)NCC1CCCO1 (centres undefined)	none (no result: Rango complex inh, Rango release inh, MmCpn inh)
O=C(O)c1ccc2c(c1)C(=O)N([C@H](Cc1ccc(C(F)(F)F)cc1)C(=O)O)C2=O	none (no result: Rango complex inh, Rango release inh, KCNH2 WT inh, CCT chaperon mod, KCNH2 3.1 block)
Nc1nc(N)c2[nH]cnc2n1	Rango release inh inconclusive, KCNH2 3.1 block -92 (no result: MmCpn inh)
O=C(c1ccc(F)cc1)C1CCN(C(=O)Nc2ccc(F)cc2)CC1	CCT chaperon mod -34
Fc1ccc(CN2CCN(c3ncnc4scc(-c5ccc(F)cc5)c34)CC2)cc1	MmCpn inh inconclusive
Clc1ccc(CN2CCN(c3ncnc4scc(-c5cccs5)c34)CC2)cc1	KCNH2 3.1 block -83
Cc1nn(C)cc1S(=O)(=O)Nc1ccc2c(c1)OCCO2	none
Cc1cc(NS(=O)(=O)c2cn(C)nc2C)no1	KCNH2 WT inh -135
CCc1c(C)nc2[nH]nc(-c3ccccc3C)n2c1=O	KCNH2 3.1 block -193
CCc1c(C)nc2[nH]nc(-c3ccccc3)n2c1=O	none
COCC(=O)N[C@@H]1c2cc(OC)c(OC)cc2C[C@H]1OCc1ccccc1	none
COC(=O)c1cc(S(=O)(=O)Nc2nn(C)c3ccccc23)oc1C	CCT chaperon mod -43
O=C(NCc1ccccc1)C12CN(Cc3ccccc3)CC1C(c1ccc([N+](=O)[O-])cc1)=NO2 (centres undefined)	KCNH2 3.1 block -77
Cc1ccc(CNC(=O)C23CN(Cc4ccccc4)CC2C(c2cccc([N+](=O)[O-])c2)=NO3)cc1 (centres undefined)	KCNH2 3.1 block -72
O=C(NCc1ccco1)C12CN(Cc3ccccc3)CC1C(c1cccc([N+](=O)[O-])c1)=NO2 (centres undefined)	none
CCN(CC)C(=O)C1=C(C)N(CCC2=CCCCC2)C(=O)C(CC(=O)NCc2cccs2)C1 (centres undefined)	none (no result: Rango complex inh, Rango release inh, MmCpn inh)
C=CCSc1nnc(NC(=O)CN2C(=O)NC3(CCCC3)C2=O)s1	none
CCC(C)NC(=O)COC(=O)c1ccc(Cl)cc1O (centres undefined)	none
COc1ccc(-c2c(-c3cc(OC)cc(OC)c3)n(C)c3ccc(-c4ccc(S(N)(=O)=O)cc4)cc23)cc1	KCNH2 3.1 block -89
Cc1cc2c(s1)c1c(C)nn(Cc3ccc(F)cc3)c(=O)c1n2C	none (no result: Rango complex inh, Rango release inh, KCNH2 WT inh, CCT chaperon mod, KCNH2 3.1 block)
COc1ccc(CNC(=O)CN(C(=O)c2snc(C(N)=O)c2N)c2ccccc2F)cc1	none
COc1ccc(C2=NS(=O)(=O)N(C)C(C(=O)N3CCC(C(N)=O)CC3)=C2)cc1	CCT chaperon mod -67
Cc1ccc(CCNC(=O)CS(=O)Cc2nc(-c3ccccc3Cl)oc2C)cc1 (centres undefined)	CCT chaperon mod -60
COCCCN(C(=S)Nc1cc(C)cc(C)c1)C(C)c1ccncc1 (centres undefined)	KCNH2 3.1 block -72
CCOc1ccc(Br)cc1S(=O)(=O)Nc1cccc(S(=O)(=O)N2CCOCC2)c1	KCNH2 WT inh -223 (no result: MmCpn inh)
O=C(C1CCN(S(=O)(=O)c2ccc(F)cc2)CC1)N1CCOCC1	CCT chaperon mod -41
O=C(C1CCN(S(=O)(=O)c2ccc(Cl)cc2)CC1)N1CCOCC1	none
O=C(O)c1cccc(NS(=O)(=O)c2ccc(S(=O)(=O)N3CCOCC3)cc2)c1	none
O=S(=O)(Nc1cccc(F)c1)c1ccc(S(=O)(=O)N2CCOCC2)cc1	KCNH2 3.1 block -74 (no result: Rango complex inh, Rango release inh, MmCpn inh)
Cc1c(C(=O)NCc2ccc3c(c2)cc(C)n3C)cccc1[N+](=O)[O-]	MmCpn inh inconclusive
COc1ccc([C@@H]2C[C@H]3[C@@H](CN2S(=O)(=O)c2ccccc2)C(=O)C[C@@H](c2cccc(Cl)c2)N3S(=O)(=O)c2ccc(C)cc2)cc1	none (no result: Rango complex inh, Rango release inh, MmCpn inh, KCNH2 WT inh, KCNH2 3.1 block)
O=C(Nc1cc(Cl)ccc1-n1cncn1)c1cn2ccccc2n1	none
O=C(Nc1cc(C(F)(F)F)ccc1-n1cncn1)c1cn2ccccc2n1	KCNH2 WT inh -152, KCNH2 3.1 block -207
CC1(N=Cc2cc(Cl)ccc2O)COP(=O)(Nc2ccccc2)OC1 (centres undefined)	Rango complex inh inconclusive (no result: MmCpn inh)
O=C(CNC(=O)c1ccccc1)OCN1C(=O)c2ccccc2C1=O	none (no result: MmCpn inh)
O=C(CCNC(=O)c1ccccc1)OCN1C(=O)c2ccccc2C1=O	KCNH2 3.1 block -73
O=C(CSc1cn(CC(=O)N2CCCCCC2)c2ccccc12)NCC1CCCO1 (centres undefined)	none
Nc1ccc(-c2nc3ccccc3[nH]2)cc1	none
Nc1ccc(Sc2nc3ccccc3[nH]2)cc1	KCNH2 WT inh -84
CC(C)Sc1nc2ccccc2[nH]1	KCNH2 3.1 block -110
Cc1cc(C)n(-c2nc(-c3ccc(Cl)c(Cl)c3)cs2)n1	KCNH2 WT inh -125
O=c1c2ccccc2[nH]c2ccc(F)cc12	Rango complex inh inconclusive, Rango release inh inconclusive
O=c1nc(-c2ccccc2Cl)c2cc(F)ccc2[nH]1	KCNH2 3.1 block -79
Cc1ccc(S(=O)(=O)N2CCN(C(=O)CNC(=O)c3ccc(Cl)cc3)CC2)cc1	none
Cc1ncc(C[n+]2csc(CCOC(=O)CC34CC5CC(CC(C5)C3)C4)c2C)c(N)n1	KCNH2 3.1 block -127
Cc1c(CCOC(=O)CC23CC4CC(CC(C4)C2)C3)sc[n+]1Cc1ccccc1	none
NC(=O)c1ccc(N=Nc2c(O)c3ccccc3[nH]c2=O)cc1	none (no result: Rango complex inh, Rango release inh, KCNH2 WT inh, CCT chaperon mod, KCNH2 3.1 block)
N=C(N)c1ccc(N=Nc2c(O)ccc3c2[nH]c2ccccc23)cc1	Rango complex inh 58µM (no result: MmCpn inh)
O=C1Nc2ccc(S(=O)(=O)NCc3ccccn3)c3cccc1c23	Rango complex inh inconclusive, Rango release inh 7.3µM
Cc1ccc(SC[C@H](Cc2ccccc2)N2CCN(C)CCC2=O)cc1	KCNH2 3.1 block inconclusive
CCCN1CCC(=O)N([C@H](CO)Cc2ccccc2)CC1	none
CCCN1CCC(=O)N([C@H](CSc2ccc(OC)cc2)Cc2ccccc2)CC1	KCNH2 3.1 block -101
Cc1ccc(SC[C@H](Cc2ccccc2)N2CCN(CCc3ccccc3)CCC2=O)cc1	KCNH2 WT inh -101, KCNH2 3.1 block -106
CCCN1CCC(=O)N([C@H](CSc2ccc(C)cc2)CC(C)C)CC1	none (no result: KCNH2 WT inh, KCNH2 3.1 block)
CCCCCCCN1CCC(=O)N([C@H](CO)Cc2ccccc2)CC1	KCNH2 WT inh inconclusive, KCNH2 3.1 block -109
CCCN1CCC(=O)N([C@H](CSc2ccc(C)cc2)Cc2ccccc2)CC1	KCNH2 3.1 block -101
O=C1CCN(CCc2ccccc2)CCN1[C@H](CSc1ccccc1)Cc1ccccc1	Rango complex inh inconclusive, KCNH2 WT inh -141, KCNH2 3.1 block -103

Screens deposited in PubChem by National Center for Advancing Translational Sciences (NCATS).
